Laboratory results as given in ChEMBL document CHEMBL3988442, “University of Dundee, Small-Polar-MMV Screening Library” (2021).
This is a selection; strong and weak results do not stand in their true shares.

Amino acid sequences for entries named in this document (tags omitted).
UniProt Q13131, whole entry: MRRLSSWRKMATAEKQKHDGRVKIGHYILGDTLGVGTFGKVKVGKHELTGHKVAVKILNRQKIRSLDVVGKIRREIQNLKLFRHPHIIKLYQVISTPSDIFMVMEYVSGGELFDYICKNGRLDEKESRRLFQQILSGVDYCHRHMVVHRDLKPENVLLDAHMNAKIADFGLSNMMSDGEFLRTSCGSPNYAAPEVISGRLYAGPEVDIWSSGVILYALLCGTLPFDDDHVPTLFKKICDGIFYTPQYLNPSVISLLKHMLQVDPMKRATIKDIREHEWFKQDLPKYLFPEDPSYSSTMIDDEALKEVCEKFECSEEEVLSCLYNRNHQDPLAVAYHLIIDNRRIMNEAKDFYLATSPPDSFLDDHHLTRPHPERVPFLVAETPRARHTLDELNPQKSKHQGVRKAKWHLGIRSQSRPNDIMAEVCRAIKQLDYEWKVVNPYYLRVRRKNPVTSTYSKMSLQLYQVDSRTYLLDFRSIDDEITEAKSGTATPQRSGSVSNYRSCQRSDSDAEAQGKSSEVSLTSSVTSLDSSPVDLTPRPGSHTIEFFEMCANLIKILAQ

Biological target: AMP-activated protein kinase, AMPK (Homo sapiens) (UniProt P54646+O43741+P54619+Q9UGJ0+Q9Y478+Q13131+Q9UGI9)
Experiment: AMP-dependent Kinase enzyme assay. An in vitro enzyme assay that detects ADP turnover that is directly proportional to AMPK activity. This uses naive AMPK that is activated during the assay with MK-8722
Format: functional
Set-up: scale not given: direction of the effect not stated beside the values
Conditions: 30 µM

Compound | Percent Effect
COc1ccccc1NC1CCN(Cc2nc(C)ccc2O)CC1 | -13.9%
COc1ccccc1NC1CCN(Cc2ccc(Br)s2)CC1 | 4.84%
Cc1ccc(NC2CCN(C(C)c3nnc(C)o3)CC2)cc1 (centres undefined) | 10.8%
COc1ccc(OC)c(NC2CCN(C)CC2)c1 | -115%
COc1ccccc1NC1CCN(Cc2scnc2C)CC1 | -12.4%
COc1ccccc1NC1CCN(Cc2ccc(Br)cc2)CC1 | -2.92%
COc1ccccc1NC1CCN(Cc2nc(C)c(C)s2)CC1 | -14.5%
COc1cc(NC2CCN(C(C)c3nnc(C)o3)CC2)cc(OC)c1 (centres undefined) | -47.6%
Cc1nnc(C(C)N2CCC(Nc3ccccc3C)CC2)o1 (centres undefined) | 1.58%
